Columns and labels:
[1] = molecular target: D-carbamoylase from Arthrobacter crystallopoietes DSM 20117 (Crystallibacter crystallopoietes, UniProt A0A1H1C375); test: Substrate specificity of the purified D-carbamoylase (relative conversion of carbamoyl substrates); type: biochemical; conditions: 30° C., 0.1 M potassium phosphate buffer pH 8.0, 20 mM
Protocol: The homogeneously purified D-carbamoylase with the His-tag and ttg start codon (pMW1 —FIG. 5) was used for characterization of the enzyme obtained in this way. The enzyme was present in 0.1 M KPB pH 8.0.
To determine the substrate spectrum, the enzyme was incubated at a reaction temperature of 30° C. with the particular substrate in the presence of 0.1 M potassium phosphate buffer pH 8.0. To ensure the same concentration of the D-isomer, if the substrate was present as an isomer mixture a concentration of 20 mM was established; if the substrate was present as a pure isomer a concentration of 10 mM was established.

By UniProt entry, the sequences of proteins in these tests, tags left out.
UniProt A0A1H1C375, entry or part of it: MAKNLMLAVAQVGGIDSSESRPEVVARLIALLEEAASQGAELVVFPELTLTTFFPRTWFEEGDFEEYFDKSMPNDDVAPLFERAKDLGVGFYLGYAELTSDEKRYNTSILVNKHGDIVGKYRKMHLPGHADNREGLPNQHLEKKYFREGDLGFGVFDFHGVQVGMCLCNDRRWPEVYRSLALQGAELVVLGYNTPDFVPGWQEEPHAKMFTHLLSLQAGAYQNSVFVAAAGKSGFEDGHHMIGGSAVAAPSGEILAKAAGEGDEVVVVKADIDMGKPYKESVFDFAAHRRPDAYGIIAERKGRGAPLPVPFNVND

D-carbamoylase = conditions: induction time of approx. six hours, E. coli JM109, ttg start codon clone

CCc1ccccc1 (racemic) [D,L-Carbamoyl-phenylalanine]
activity corresponding to 100% relative activity (reference substrate) [1]: 2 U/mg
specific activity (maximum) (D-carbamoylase): 2 U/mg
